Laboratory results published in patent US20250163160A1 (Amgen, published 2025).
Residue numbers refer to the chain shown, from its start. Names and notes keep the numbering of the source. One block for each binder: values may come before it.

Sequences of proteins named here, by UniProt entry; tags and fusion partners are left off. A line that says so, or that is headed by a name, gives the form on record, which may keep a tag or linker. Residues count along the entry.
UniProt P11362, 22-822 limits assumed, form in doubt, chain 1 of 2: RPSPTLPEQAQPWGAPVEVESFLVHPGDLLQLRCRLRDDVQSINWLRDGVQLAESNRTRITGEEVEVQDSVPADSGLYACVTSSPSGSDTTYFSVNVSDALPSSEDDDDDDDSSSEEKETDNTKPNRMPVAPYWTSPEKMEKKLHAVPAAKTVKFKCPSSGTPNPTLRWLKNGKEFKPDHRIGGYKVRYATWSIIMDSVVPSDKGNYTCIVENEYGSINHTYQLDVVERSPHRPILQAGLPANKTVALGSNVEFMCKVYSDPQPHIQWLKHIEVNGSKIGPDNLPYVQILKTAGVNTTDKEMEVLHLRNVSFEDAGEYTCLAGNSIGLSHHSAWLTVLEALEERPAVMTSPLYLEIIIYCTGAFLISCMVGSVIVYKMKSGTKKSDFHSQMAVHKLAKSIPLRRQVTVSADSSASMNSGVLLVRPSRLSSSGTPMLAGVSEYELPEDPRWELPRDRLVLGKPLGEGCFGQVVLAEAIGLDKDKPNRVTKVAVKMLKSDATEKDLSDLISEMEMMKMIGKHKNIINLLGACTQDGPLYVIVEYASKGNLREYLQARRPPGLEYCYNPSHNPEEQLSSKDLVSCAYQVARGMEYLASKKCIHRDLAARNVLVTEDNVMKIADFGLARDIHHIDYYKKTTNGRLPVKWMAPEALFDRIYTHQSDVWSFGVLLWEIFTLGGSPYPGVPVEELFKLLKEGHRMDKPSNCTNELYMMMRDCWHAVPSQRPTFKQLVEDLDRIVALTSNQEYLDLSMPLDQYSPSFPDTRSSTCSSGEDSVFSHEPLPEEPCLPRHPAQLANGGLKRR

Legend:
[1] = molecular target: T1, human FGF21 receptor (FGF21R): full length human FGFR1c and full length human β-Klotho co-expressed on cells (human, UniProt P11362; Q86Z14); assay: cell-based or functional assay
[2] = molecular target: T1, human FGF21 receptor (FGF21R): full …; assay: cell-based or functional assay; remark: listed apart in the source

EC50 (read off the curve); luciferase reporter (RLU) in AM-1/D FGFR1c+β-Klotho Luc cells, 16H7 alone (0 nM 39F11) [1]: ~3 nM
B1: 16H7 (antibody, human IgG2, lambda)
heavy: QVTLKESGPVLVKPTETLTLTCTVSGFSLNNARMGVSWIRQPPGKALEWLAHIFSNDEKSYSTSLKSRLTISKDTSKSQVVLIMTNMDPVDTATYYCARSVVTGGYYYDGMDVWGQGTTVTVSSASTKGPSVFPLAPCSRSTSESTAALGCLVKDYFPEPVTVSWNSGALTSGVHTFPAVLQSSGLYSLSSVVTVPSSNFGTQTYTCNVDHKPSNTKVDKTVERKCCVECPPCPAPPVAGPSVFLFPPKPKDTLMISRTPEVTCVVVDVSHEDPEVQFNWYVDGVEVHNAKTKPREEQFNSTFRVVSVLTVVHQDWLNGKEYKCKVSNKGLPAPIEKTISKTKGQPREPQVYTLPPSREEMTKNQVSLTCLVKGFYPSDIAVEWESNGQPENNYKTTPPMLDSDGSFFLYSKLTVDKSRWQQGNVFSCSVMHEALHNHYTQKSLSLSPGK
light: SYVLTQPPSVSVAPGQTARITCGGNNIGSESVHWYQQKPGQAPVLVVYDDSDRPSGIPERFSGSNSGNTATLTISRVEAGDEADYYCQVWDGNSDHVVFGGGTKLTVLGQPKANPTVTLFPPSSEELQANKATLVCLISDFYPGAVTVAWKADGSPVKAGVETTKPSKQSNNKYAASSYLSLTPEQWKSHRSYSCQVTHEGSTVEKTVAPTECS

EC50 (nM), Erk-phosphorylation, human adipocyte assay [2]: 0.11 nM
B2: 16H7 variant, heavy chain H3, light chain Q16K (antibody, human IgG2, lambda)
heavy: B1 heavy
light: B1 light with Q16K
